According to patent US20260115304A1, “BIOACTIVE CONJUGATES, PREPARATION METHOD AND USE THEREOF” (priority 2023, published 2026):

B1: 3-11 (conjugate)
heavy: EVQLVQSGAEVKKPGASVKVSCKASGYSFTDYYMHWVRQAPGQGLEWIGRINPYAGAAFYSQNFKDRVTLTVDTSTSTAYLELSSLRSEDTAVYYCAIERGADLEGYAMDYWGQGTLVTVSSASTKGPSVFPLAPSSKSTSGGTAALGCLVKDYFPEPVTVSWNSGALTSGVHTFPAVLQSSGLYSLSSVVTVPSSSLGTQTYICNVNHKPSNTKVDKKV[human IgG1 Fc omitted]
light: DIQMTQSPSSLSASVGDRVTITCRASQSVSTSSYNYMHWYQQKPGKPPKLLIKYASNLESGVPSRFSGSGSGTDFTLTISSLQPEDFATYYCQHSWEIPLTFGQGTKVEIKRTVAAPSVFIFPPSDEQLKSGTASVVCLLNNFYPREAKVQWKVDNALQSGNSQESVTEQDSKDSTYSLSSTLTLSKADYEKHKVYACEVTHQGLSSPVTKSFNRGEC
B2: 3-12 (conjugate)
heavy: B1 heavy
light: B1 light
B3: 3-14 (conjugate)
heavy: B1 heavy
light: B1 light
B4: 3-18 (conjugate)
heavy: B1 heavy
light: B1 light
B5: 3-A (conjugate)
heavy: B1 heavy
light: B1 light

Experiments:
[1] = anti-CLL1 ADCs; for payload exposure compared with ADC3-A: mouse PK, 5 mg/kg
Procedure: Female BALB/c nude mice (n=3 per group) were treated with freshly prepared ADCs (5 mg/kg) through intravenous administration. At the designated time points after dosing, mice were anesthetized by isoflurane. […] Blood samples were placed at room temperature for about 30 minutes and processed by centrifugation (4° C., 3000×g, 7 min) to separate plasma. Serum samples were transferred into new 1.5 mL tubes and kept in a −80° C. freezer prior to analysis.
Serum payload concentrations. To determine serum payload concentrations, an aliquot of 15 μL sample was added with 150 μL IS (Verapamil, 10 ng/mL) in ACN/MeOH (1:1). The mixture was vortexed for 1 min and centrifuged at 4000 rpm for 10 min at 4° C. An aliquot of 80 μL supernatant was diluted with 80 μL water, and the mixed sample was injected into LC-MS/MS.
LC-MS MS method to determine payload bioanalysis. LC-MS/MS analysis was carried out under the following measurement conditions: • Instrument: LC-MS/MS (Triple Quad 6500 plus) • Monitor: MRM • Column: Advanced Materials Technology, HALO AQ-C18 2.7 μm 90 Å, 50*2.1 mm • Column temperature: 40° C. • Mobile phase A: H2O-0.1% FA • Mobile phase B: ACN-0.1% FA • Gradient program for MMAE: 15% B-15% B (0 min-0.4 min), 15% B-30% B (0.4 min-0.8 min), 30% B-30% B (0.8 min-1.8 min), 30% B-90% B (1.8 min-1.9 min), 90% B-90% B (1.9 min-2.4 min), 90% B-15% B (2.4 min-2.5 min), 15% B-15% B (2.5 min-3.0 min) • Injected sample amount: 10 μL (MMAE)
Plasma ADC and total Ab (Tab) concentrations. Plasma ADC and Tab concentrations were determined using an ELISA assay in which the capture reagent was CLL1 or PTK7 (as applicable) ECD (extracellular domain). The detection reagent was anti-payload Ab for ADC concentration and anti-human IgG polyclonal Ab for Tab concentration.
For ADC concentration, microplates were coated with CLL1 or PTK7, as applicable. ECD at 1 μg/mL, 100 μL per well and incubated overnight at 4° C. The microplates were washed 3 times with 0.05% PBST, then 200 μL 2% BSA solution was added per well. The plates were incubated at 37° C. for 1 h followed by washing 3 times with 0.05% PBST. Then 100 μL (of ADC samples or for standard curves) were added to each well. Plates were incubated at 37° C. for 1h followed by washing 3 times with 0.05% PBST. 100 μL of 1 μg/ml biotin anti-MMAE antibody was added per well. Plates were again incubated at 37° C. for 1 h and then washed 3 times with 0.05% PBST. Then 100 μL of 1:10000 SA-HRP was added per well, incubated at 37° C. for 0.5h, followed by washing 3 times with 0.05% PBST. Lastly, 100 μL TMB was added per well and plates were incubated for 15 mins at room temperature before the addition of 100 μL stop solution per well. Plates were read at OD 450 on an ELISA microplate reader.
For Tab concentration of anti-CLL1 antibodies, the foregoing ADC method was used except for the following changes: 100 μL of anti human lgG Fc HRP (1:10000) was added per well.
For Tab concentration of anti-PTK1 antibodies, the foregoing ADC method was used except for the following changes: 100 μL of 1 μg/ml anti human lgG Fc HRP (1:10000) was added per well.
Female BALB/c nude mice were subcutaneously injected with 5×10^6 NCI-H1650 cells (mixed with Matrigel at a ratio of 1:1) in the right flank. After inoculation, tumor length (a) and width (b) were measured with calipers and tumor volumes were calculated using the formula V=0.5(a×b^2). When tumor volumes reached approximately 200 mm^3 in size, mice were randomized into 4 groups with 6 animals in each of a vehicle, ADC5-A, ADC5-1, and ADC5-2 group on Day 0. Animals were intravenously administrated with vehicle, ADC5-A (3 mg/kg), ADC5-1 (3 mg/kg), or ADC5-2 (3 mg/kg) on treatment Day 1. […] Blood was centrifuged at 5000×g for 10 minutes at 4° C. to obtain serum for PK assays. Animal body weight and tumor volume were measured twice weekly. Tumor growth inhibition (TGI) was calculated using the following formula: […]

[2] = ADC hydrophobicity evaluation by HIC chromatography (DAR8 peak retention time); type: physicochemical; settings: HIC retention time of DAR8 peak; later RT = higher hydrophobicity
Description: ADC hydrophobicity evaluation: An ADC with a higher hydrophobic property would appear with a later retention time (“RT”) from HIC (hydrophobicity interaction column) chromatography. Results are presented in Tables 2A-2D using the DAR8 peak as a reference.

[3] = anti-CLL1 ADCs, 5 mg/kg; for DAR: mouse; for DAR changes compared with ADC3-A: mouse PK
Procedure: ADC DAR changes in mouse serum PK samples.
Human CLL1 or PTK7, as applicable, ECD was biotinylated and immobilized onto Dynabeads M-280 Streptavidin. ADCs were captured from the plasma samples by incubation with an ECD-bead system for 2 hours at 37° C. The captured ADCs were then washed with HBS-EP buffer (10 mM Hepes [pH 7.4], 150 mM NaCl, 3.4 mM ethylenediaminetetraacetic acid [EDTA], 0.005% Surfactant P20) and digested using IdeS enzyme at 37° C. for 1 h. After extensive washing of the beads with HBS-EP, water, and 10% acetonitrile, the ADC analytes were eluted using 30% acetonitrile with 1% formic acid. The samples were then reduced with 100 mM TCEP for 45 min. Liquid chromatography-tandem mass spectrometry (LC-MS/MS)methods were used for the ADC DAR analysis.

U937 cells = assay: ADC direct killing in U937 cancer line (Cell Titer-Glo); type: cell-based, human; settings: U937, 6 days
Procedure: U937 (ATCC, CRL-1593.2). […] U937 was purchased from ATCC. The base medium for U937 is ATCC-formulated RPMI-1640 Medium (ATCC 30-2001). To make the complete growth medium, fetal bovine serum to a final concentration of 10% (Gibco, 10099-141C) was added to the base medium. The cell line was grown in a humidified 5% CO2 atmosphere at 37° C., and was regularly tested for the presence of mycoplasma with MycoAtert™ PLUS Mycoplasma Detection Kit (Lonza, LT07-710).
ADC direct killing ADC direct killing was assessed in U937, HL60, and TF1 cancer lines. Cells were seeded (U937 or HL60 (3E3/well) or TF1 (6E3/well)) into 2D 96-well plates (Greiner: 655090), 100 μl/well (including 150 μg/ml Fe blocker), and incubated at 37° C., 5% CO2, for 1 h. Fresh growth medium was added containing varying concentrations of ADCs, 50 μl/well, and incubated at 37° C., 5% CO2, for 6 days. The cell viability was detected by Cell Titer-Glo (Promega, G7573), 70 μl/well. The 2D plates were allowed to incubate at room temperature for 10 minutes to stabilize the luminescent signal. The plates were analyzed with a microplate reader.

Molecule | ADC AUClast ([1]; mouse, 5 mg/kg intravenous) | Tab AUClast ([1]; mouse, 5 mg/kg intravenous) | payload exposure compared with ADC3-A [1] | DAR8 RT [2] | DAR ([3]; 2 h post-dosing) | DAR ([3]; […] post-dosing) | DAR changes compared with ADC3-A [3] | EC50 (U937 cells) | DAR ([3]; 48 h post-dosing) | Payload AUClast ([1]; mouse, 5 mg/kg intravenous, payload MMAE) | DAR ([3]; 0.5 h post-dosing) | DAR ([3]; 72 h post-dosing) | EC50 (U937 cells; listed as ADC3-A)
B1 | 8127 µg·h/mL | 8559 µg·h/mL | lower payload exposure | 13.220 min | 3.24 (2 h) | 2.50 (168 h) | lower DAR changes | 0.5 nM | – | – | – | – | –
B2 | 8358 µg·h/mL | 7949 µg·h/mL | lower payload exposure | 11.126 min | 2.68 (2 h) | 2.42 (168 h) | lower DAR changes | 0.6 nM | – | – | – | – | –
B3 | 5072 µg·h/mL | 6481 µg·h/mL | lower payload exposure | 12.877 min | 4.04 (2 h) | 2.88 (168 h) | lower DAR changes | 0.2 nM | – | – | – | – | –
B4 | 7696 µg·h/mL | 8242 µg·h/mL | lower payload exposure | 12.192 min | 3.96 (2 h) | – | lower DAR changes | 0.4 nM | 2.44 (48 h) | – | – | – | –
B5 | 4353 µg·h/mL | 6448 µg·h/mL | – | 14.466 min | – | 1.22 (168 h) | – | – | – | 0.00858 µg·h/mL | 2.76 (0.5 h) | 1.96 (72 h) | 1 nM and 0.8 nM and 0.9 nM and 0.7 nM and 0.6 nM

“And” between values parts separate entries of the source, which are not always exact repeats. Equal entries are not always repeated. Where two headings read alike, the source gives them in different places.
